Key:
[1] = target: Trypsin (type 1× from porcine pancreas) (Sus scrofa, UniProt P00761); test: Trypsin Assay
[2] = target: recombinant soluble tissue factor and recombinant human factor VIIa (TF-VIIa) (Homo sapiens, UniProt P08709); test: TF-VIIa Assay

Chains of the proteins cited; added tags and fusions are not shown. Residues count along the entry.
UniProt P00761, 9-231: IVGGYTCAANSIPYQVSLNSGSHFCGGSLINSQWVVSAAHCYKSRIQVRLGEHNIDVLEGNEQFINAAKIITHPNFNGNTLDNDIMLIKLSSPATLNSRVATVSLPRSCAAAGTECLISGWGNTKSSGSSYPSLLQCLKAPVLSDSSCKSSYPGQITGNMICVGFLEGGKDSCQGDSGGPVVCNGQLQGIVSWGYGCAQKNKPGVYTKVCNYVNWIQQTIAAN
UniProt P08709, 61-212 limits assumed: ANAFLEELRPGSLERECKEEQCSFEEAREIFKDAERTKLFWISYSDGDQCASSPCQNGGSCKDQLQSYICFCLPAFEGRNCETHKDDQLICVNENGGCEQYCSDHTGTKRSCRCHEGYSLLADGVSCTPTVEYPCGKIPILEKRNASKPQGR
UniProt P08709, 213-466 limits assumed: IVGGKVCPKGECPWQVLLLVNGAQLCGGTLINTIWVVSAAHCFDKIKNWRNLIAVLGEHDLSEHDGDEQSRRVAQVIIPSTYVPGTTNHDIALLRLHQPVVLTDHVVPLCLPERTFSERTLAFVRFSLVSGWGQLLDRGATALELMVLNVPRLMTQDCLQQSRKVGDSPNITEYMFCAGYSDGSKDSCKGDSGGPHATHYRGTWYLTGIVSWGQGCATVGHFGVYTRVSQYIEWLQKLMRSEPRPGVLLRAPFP

SMILES | % Inhibition Trpysin II (100 νM) [1] | % Inhibition TF-VIIa (100 νM) [2]
O=C(Cn1c(-c2ccc(-c3ccccc3)cc2)c(Cl)nc(NCCc2cccc(Cl)c2)c1=O)NCCc1ccncc1 [Example E-0051] | 0% | 0%
O=C(Cn1c(-c2ccc(-c3ccccc3)cc2)c(Cl)nc(NCCc2ccccc2)c1=O)NCCc1cccnc1 [Example E-0113] | 11% | 14%

Reference: patent US7119094B1, “Substituted polycyclic aryl and heteroarpyl pyrazinones useful for selective inhibition of the coagulation cascade” (Warner-Lambert Company, priority 2000, dated 2006)
